We go through four compounds from patent publication US8759377B2, “Substituted dioxopiperidines and dioxopyrrolidines as MGLUR4 allosteric potentiators, compositions, and methods of treating neurological dysfunction” (Vanderbilt University, priority 2009, dated 2014).

Chains of the proteins cited; added tags and fusions are not shown. Residues count along the entry.
UniProt Q14833, 33-912: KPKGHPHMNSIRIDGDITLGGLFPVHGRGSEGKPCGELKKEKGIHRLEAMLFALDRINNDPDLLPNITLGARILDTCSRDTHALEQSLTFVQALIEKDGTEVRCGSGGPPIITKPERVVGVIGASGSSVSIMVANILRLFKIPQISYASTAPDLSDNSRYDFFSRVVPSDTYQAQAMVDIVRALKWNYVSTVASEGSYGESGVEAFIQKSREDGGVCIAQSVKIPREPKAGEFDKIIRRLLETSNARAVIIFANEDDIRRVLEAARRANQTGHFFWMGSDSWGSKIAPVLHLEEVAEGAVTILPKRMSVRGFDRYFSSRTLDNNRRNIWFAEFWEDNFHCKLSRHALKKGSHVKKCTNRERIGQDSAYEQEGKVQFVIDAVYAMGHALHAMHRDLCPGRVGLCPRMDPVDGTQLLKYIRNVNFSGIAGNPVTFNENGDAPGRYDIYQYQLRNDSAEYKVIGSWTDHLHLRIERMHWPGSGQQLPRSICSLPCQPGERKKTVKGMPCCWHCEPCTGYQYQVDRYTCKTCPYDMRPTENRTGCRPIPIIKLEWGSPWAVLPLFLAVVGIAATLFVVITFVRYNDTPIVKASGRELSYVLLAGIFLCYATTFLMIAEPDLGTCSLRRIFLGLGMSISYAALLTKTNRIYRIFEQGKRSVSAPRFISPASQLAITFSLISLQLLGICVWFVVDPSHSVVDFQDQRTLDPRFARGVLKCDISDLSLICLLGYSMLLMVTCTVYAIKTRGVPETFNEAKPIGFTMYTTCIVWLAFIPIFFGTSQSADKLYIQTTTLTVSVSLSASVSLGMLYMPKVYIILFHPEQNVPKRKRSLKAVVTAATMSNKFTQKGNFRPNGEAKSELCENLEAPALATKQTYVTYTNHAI

The assay addresses T1, human mGluR4 (Homo sapiens, UniProt Q14833).
T1 construct: expressed in transfected cells; host or cells: CHO cells
Kind of assay: human mGluR4 potentiation, Ca2+-sensitive dye fluorescence assay in transfected CHO cells. In kind it is cell-based. The method, then:
The disclosed compounds and compositions can be evaluated for their ability to act as a potentiator of metabotropic glutamate receptor activity, in particular mGluR4 activity, by any suitable known methodology known in the art. For example, Chinese Hamster Ovary (CHO) cells transfected with human mGluR4 or HEK cells co-transfected with rat mGluR4 and the G-protein regulated Inwardly Rectifying Potassium channel (GIRK) were plated in clear bottom assay plates for assay in a Hamamatsu FDSS Fluorometric Plate Reader. The cells were loaded with either a Ca2+-sensitive fluorescent dye or the thallium responsive dye and the plates were washed and placed into a suitable kinetic plate reader. For human mGluR4 assays, a fluorescence baseline was established for 3-5 seconds, the disclosed compounds were then added to the cells, and the response in cells was measured. Approximately two and a half minutes later, a concentration of mGluR4 orthosteric agonist (e.g. glutamate or L-AP4) eliciting approximately 20% (EC20) of the maximal agonist response was added to the cells, and the response was measured. Two minutes later, a concentration of mGluR4 agonist (e.g. glutamate or L-AP4) eliciting 80% (EC80) of the maximal agonist response was added to the cells, and the response was measured. For rat mGluR4/GIRK experiments, a baseline was established for approximately five seconds, disclosed compounds were added, and either an EC20 or EC80 concentration of agonist was added approximately two and one half minutes later.
The above described assay operated in two modes. In the first mode, a range of concentrations of the disclosed compounds are added to cells, followed by a single fixed concentration of agonist. If the compound acts as a potentiatior, an EC50 value for potentiation and a maximum extent of potentiation by the compound at this concentration of agonist is determined by non-linear curve fitting. If the compound acts as a noncompetitive antagonist, an IC50 value is determined by non-linear curve fitting. In the second mode, several fixed concentrations of the disclosed compounds are added to various wells on a plate, followed by a range in concentrations of agonist for each concentration of disclosed compound. The ECso values for the agonist at each concentration of compound are determined by non-linear curve fitting. A decrease in the EC50 value of the agonist with increasing concentrations of the sample compound (a leftward shift of the agonist concentration-response curve) is an indication of the degree of mGluR4 potentiation at a given concentration of the sample compound. […]

Setting [1] is: EC50 for potentiation, human mGluR4, with EC20 concentration of agonist, read-out: hEC50.

Where two headings read alike, the source gives them in different places.

Regarding `O=C(Nc1ccc(N2C(=O)[C@H]3CCCC[C@H]3C2=O)c(Cl)c1)c1ccccn1` [Example 9, N-(3-chloro-4-((3aR,7aS)-1,3-dioxo-1H-isoindol-2(3H,3aH,4H,5H,6H,7H,7aH)-yl)phenyl)picolinamide], the EC50 under setting [1] was 613 nM.

On to `O=C(Nc1ccc(N2C(=O)[C@@H]3CCCC[C@H]3C2=O)c(Cl)c1)c1ccccn1` [Example 8, N-(3-chloro-4-((3aR,7aR)-1,3-dioxo-1H-isoindol-2(3H,3aH,4H,5H,6H,7H,7aH)-yl)phenyl)picolinamide], for which the EC50 amounted to 632 nM.

As to `O=C(Nc1ccc(N2C(=O)[C@@H]3[C@H](C2=O)[C@@H]2C=C[C@H]3CC2)c(Cl)c1)c1ccccn1` [Example 1], the EC50 under setting [1] worked out at 97.8 nM.

Take `CC1(c2ccccc2)CC(=O)N(c2ccc(NC(=O)c3ccccn3)cc2Cl)C1=O` (stereo not shown) [Example 6, N-(3-chloro-4-(3-methyl-2,5-dioxo-3-phenylpyrrolidin-1-yl)phenyl)picolinamide]: the EC50 under setting [1] was determined as 661 nM.
